# AlphaSeq binding of Ab-14 heavy chain variants to a spike HR2 peptide

Reference: Engelhart et al. 2022, doi:10.1038/s41597-022-01779-4. File: FLAb, binding data.

Target: peptide PDVDLGDISGINAS, taken from heptad repeat 2 (HR2) of SARS-CoV-2 spike.

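The starting antibody came from a phage panning campaign against this peptide. In library AAYL49, one, two or three CDR residues were substituted; doubles and triples were drawn at random. AlphaSeq pools MATa yeast showing the antibodies with MATalpha yeast showing the peptide. The frequency of each diploid, read from paired DNA barcodes, reflects how well the two displayed proteins bind. A regression on co-assayed BCL2-family reference pairs converts the normalised counts of each replicate to an apparent Kd. Mating was done three times.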

Parent scFv Ab-14: VH joined to VL by three GGGGS repeats. Changes lie in the heavy chain CDRs alone.
VH: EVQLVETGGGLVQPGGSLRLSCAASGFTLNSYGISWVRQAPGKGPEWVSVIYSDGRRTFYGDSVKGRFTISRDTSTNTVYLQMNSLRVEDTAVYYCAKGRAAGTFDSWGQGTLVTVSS
VL: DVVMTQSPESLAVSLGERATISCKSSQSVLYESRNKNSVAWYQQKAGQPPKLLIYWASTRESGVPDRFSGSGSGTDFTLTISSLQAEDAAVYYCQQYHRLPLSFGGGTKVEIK

Variants are written as CDR1, CDR2 and CDR3 of the heavy chain (limits as in the source). Parent: GFTLNSYGIS, VIYSDGRRTFYGDSVK, GRAAGTFDS.
Every variant below is changed at R56 of the VH (sequential numbering).
Each Kd is an estimate from the mating assay, the geometric mean of the replicates in which the pair was seen; lower is stronger.
A pair that was not seen in any replicate is written "no signal"; this usually means weak binding, but a binder can also be missed.
Background: pairings of library AAYL49 with three empty control strains gave a value in 15% of cases (median 11 µM, 5th percentile 680 nM). Values in that range, when seen in few replicates, are hard to tell from nonspecific mating.

* GFTLNCYGIS / VIYSDGARTFYGDSVK / GRAAGTFDS = 15 µM (2 of 3 replicates)
* GFTLNSYKIS / VIYFDGVRTFYGDSVK / GRAAGTFDS = no signal (0 of 3 replicates)
* GFHLNSYYIS / VIYSDGMRTFYGDSVK / GRAAGTFDS = 790 nM (1 of 3 replicates)
* GFTMNSYGPS / VIYSDGTRTFYGDSVK / GRAAGTFDS = 16 µM (3 of 3 replicates)
* GFTLNSYGIS / VKYSDGERTFYGDSVK / GRAAGTFDS = no signal (0 of 3 replicates)
* GFTLNSYGIS / VIYSDGSNTFYGDSVK / GRAAGTADS = no signal (0 of 3 replicates)
* GFTLNSYGIS / VIYSDGQRTFYGDSVK / GRAAGTFDS = 4.3 nM (3 of 3 replicates)
* GFTLNSYESS / VIYSDGLRTFYGDSVK / GRAAGTFDS = no signal (0 of 3 replicates)
* GFTLNSYGIS / VIYSDGCRNFYGDSVK / GRAAGTFYS = no signal (0 of 3 replicates)
* GFTLNNYGIS / VIYSDGQRTFYGDSVK / GRAAGTFAS = 9.3 nM (3 of 3 replicates)
* GFTLQSYGIS / VIYSDGFRTFYGDSVG / GRAAGTFDS = 59 nM (1 of 3 replicates)
* GHTLNSYGIS / VIYSDGLRTFYGDSVK / GRAAYTFDS = no signal (0 of 3 replicates)
* CFTLNSYGIS / VIYSDGQRTFYGDSVK / GRAAGTFDS = no signal (0 of 3 replicates)
* GFTLNSYGIS / VIYSPGLRTFYGDSVK / GRAAGLFDS = no signal (0 of 3 replicates)
* GFTLNSFGIS / VIYSDGGRTFYGDSVK / GRAAGTFDS = no signal (0 of 3 replicates)
* GFTLNSYMIS / VIYSDGMRTFYGDGVK / GRAAGTFDS = 5.7 µM (2 of 3 replicates)
* GFTLNSYGIS / VIYSDGYRTFYGDSVK / GRAAGAFDS = no signal (0 of 3 replicates)
* GFTLNSFGIS / VIYSDGARTFYGDSVK / GRAAGTYDS = 340 nM (3 of 3 replicates)
* GFTLNSYGIS / VIYSDGCRTFYGDSVK / GRNAGTFDS = 44 nM (3 of 3 replicates)
* GFTLDSYGIS / VIYSDGGRTFYGDSVK / GRAAGTFHS = 2.0 µM (3 of 3 replicates)
* GFTLNSYGIS / VIYSDGDRTFYGDSVK / GRAAGVFGS = 7.3 µM (2 of 3 replicates)
* GFTLRSRGIS / VIYSDGQRTFYGDSVK / GRAAGTFDS = 14 nM (3 of 3 replicates)
* GRTLNSYGIS / VIYSDGMRTFYGDSVK / GRCAGTFDS = 180 nM (2 of 3 replicates)
* GFTLNSYGIS / VIYSDGPRTFYGDSVK / GRAAGTNCS = no signal (0 of 3 replicates)
* GFTLNSYGIS / VIYGDGERTFYGDSVK / GRAAGTCDS = 2.5 µM (3 of 3 replicates)
* GFVLNSYGIS / VIYSDGHRTFYPDSVK / GRAAGTFDS = no signal (0 of 3 replicates)
* GFTLNSYGSS / VIYLDGGRTFYGDSVK / GRAAGTFDS = 21 µM (2 of 3 replicates)
* GFTLNSYIIS / VIYSDGSRTFYGDSKK / GRAAGTFDS = no signal (0 of 3 replicates)
* GFTLNSYGIS / VIFVDGMRTFYGDSVK / GRAAGTFDS = no signal (0 of 3 replicates)
* GFTLNSYGIS / VIYSDGTRTFYGDSVK / GRAAPTFDP = 14 nM (3 of 3 replicates)
* GFTDNSYGIS / VIYSDGPRTFYGDSVK / GRAAGTFDL = no signal (0 of 3 replicates)
* GFTLNSYGIN / VIYSDGIRTFVGDSVK / GRAAGTFDS = 200 µM (1 of 3 replicates)
* GFTLNSYGIS / VIYSDGMRTFYGDSTK / GRAAGTQDS = 3.7 µM (1 of 3 replicates)
* GFTLNSYIIS / VIYSDGNRTFYGDSVK / GRAAGTFDS = no signal (0 of 3 replicates)
* GFHLNSYGIS / VIYSDGKRTFYGDSVK / GRAAGSFDS = 1.9 nM (3 of 3 replicates)
* GFTLNSYGIS / DIYSDGLRTFYGDSVK / GRAWGTFDS = no signal (0 of 3 replicates)

4 of these entries, quoted again:

* GFTLNSYESS / VIYSDGLRTFYGDSVK / GRAAGTFDS -> no signal (0 of 3 replicates)
* GHTLNSYGIS / VIYSDGLRTFYGDSVK / GRAAYTFDS -> no signal (0 of 3 replicates)
* GFHLNSYGIS / VIYSDGKRTFYGDSVK / GRAAGSFDS -> 1.9 nM (3 of 3 replicates)
* GFTLNSYGIS / VIYSDGQRTFYGDSVK / GRAAGTFDS -> 4.3 nM (3 of 3 replicates)